The series is classed as physicochemical. As to the method: 2.71×10^−3 mole of ABSD zwitterion (anhydrous) were added to 5.42×10^−3 mole of NaOH and the mixture was dissolved in 2 mL of water. Then, crystallization was forced by adding an anti-solvent (Ethanol) in large excess (30 mL). After filtration, the solid was analyzed by XRPD. This XRPD pattern proves that a new phase has been crystallized. It should be the disodium salt of ABSD. A TGA-DSC analysis (coupled to mass spectrometry) was performed on this salt in order to observe its thermal behavior, and to determine its water content. According to this analysis, this phase loses water between 30 and 40° C.
A TGA-DSC analysis (coupled to mass spectroscopy) was performed on this phase (FIG. 8).
A TGA-DSC analysis coupled to a Mass Spectroscopy (MS) was performed on this phase (FIG. 10).

For the substance L-cysteinate, the melting-degradation temperature result is “circa 175 °C”. Besides, the “temperature of loss of water” value (TGA-DSC from 30° C., heating rate 5K/Min) is “circa 74 °C”.

The values are drawn from patent US9487477B2, “Crystalline phase of (3S,3S′) 4,4′-disulfanediylbis(3-aminobutane 1-sulfonic acid) with L-lysine” (Quantum Genomics, priority 2012, dated 2016).
